In patent US20190000976A1, “Purgative Composition” (CTC BIO, INC., priority 2016, published 2019):

Assay: Stability of sodium picosulfate in solution alone, with polyethylene glycol 4000 or with sorbitol (content by HPLC, British Pharmacopoeia)
Type: physicochemical
Settings: accelerated condition (40° C., 75%RH)
Description: 0.01 g of sodium picosulfate, 150 g of polyethylene glycol 4000, and 54.6 g of sorbitol were dissolved with heat in purified water according to the following tables and the total volume was 300 ml. The solution was stored at room temperature, in accelerated condition (40° C., 75%RH), and stress condition (60° C., 75%RH). The content of sodium picosulfate was evaluated. The content of sodium picosulfate was determined by ‘Sodium picosulfate’ test method of British Pharmacopoeia using high performance liquid chromatography.

In the case of O=S(=O)(O)Oc1ccc(C(c2ccc(OS(=O)(=O)O)cc2)c2ccccn2)cc1 [sodium picosulfate], the “Content (%) of sodium picosulfate, After 2 weeks Accelerated condition” value is reported as 103.6%.
